For 1 compound, drug sensitivity score results are on record in the supplement of paper PMC7108870.

Experiment [1] deals with HEK293sieSTAT3(Y640F). As to the kind of experiment: drug sensitivity score (DSS), viability CellTiter-Glo (DSS (dimensionless)); higher = more growth inhibition; extreme values may be limits of the assay. To be noted: 72 h; STAT3 variant: Y640F (constitutively active). Summed up:
(§1)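 HEK293 cells bearing a STAT3-dependent luciferase reporter and overexpressing wild-type or mutant STAT3 were incubated with compounds at 5 concentrations in 10-fold steps for 72 hours at 37°C and 5% CO2. CellTox Green fluorescence and then CellTiter-Glo luminescence were measured, and values were normalised to negative and positive control wells. In Breeze, a drug sensitivity score was computed from the dose-response curve area.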

In experiment [2] the test system is HEK293sieSTAT3(wt). The description is as above. The settings on record: 72 h; STAT3 variant: wild type. The essentials: as §1
For experiment [3], the system named is HEK293sieSTAT3(Y640F). Description: drug sensitivity score (DSS), cytotoxicity CellTox Green (DSS (dimensionless)); higher = more cytotoxic; extreme values may be limits of the assay. To be noted: 72 h; STAT3 variant: Y640F (constitutively active). Summed up:
as §1

For experiment [4], the system named is HEK293sieSTAT3(wt). The description is as above. The settings on record: 72 h; STAT3 variant: wild type. Summed up: as §1

For `NCc1ccc(OCCCc2sc(-c3ccc4c(c3)/C(=N/Nc3nc5ccccc5s3)CCC4)nc2C(=O)O)cc1` [WEHI-539] (top concentration tested 2500 nM), the drug sensitivity score in experiment [1] came out at 0; in experiment [2], 0; in experiment [3], 0; in experiment [4], 0.89.
